# Values quoted from earlier work as cited in patent publication US20210008048A1, “COMPOSITIONS AND METHODS FOR CANCER TREATMENT” (Dana-Farber Cancer Institute, Inc., priority 2018, published 2021).
# Where “and” joins values, the source holds several entries; their conditions need not be identical. Equal values may be shown once.
# Columns and labels:
# TLR8 = target: T1, TLR8 (Homo sapiens, UniProt Q9NR97); details: cited from earlier work
# T1 construct: expressed in transfected cells; host or cells: HEK293
# T1 sequence (Q9NR97 27-1041): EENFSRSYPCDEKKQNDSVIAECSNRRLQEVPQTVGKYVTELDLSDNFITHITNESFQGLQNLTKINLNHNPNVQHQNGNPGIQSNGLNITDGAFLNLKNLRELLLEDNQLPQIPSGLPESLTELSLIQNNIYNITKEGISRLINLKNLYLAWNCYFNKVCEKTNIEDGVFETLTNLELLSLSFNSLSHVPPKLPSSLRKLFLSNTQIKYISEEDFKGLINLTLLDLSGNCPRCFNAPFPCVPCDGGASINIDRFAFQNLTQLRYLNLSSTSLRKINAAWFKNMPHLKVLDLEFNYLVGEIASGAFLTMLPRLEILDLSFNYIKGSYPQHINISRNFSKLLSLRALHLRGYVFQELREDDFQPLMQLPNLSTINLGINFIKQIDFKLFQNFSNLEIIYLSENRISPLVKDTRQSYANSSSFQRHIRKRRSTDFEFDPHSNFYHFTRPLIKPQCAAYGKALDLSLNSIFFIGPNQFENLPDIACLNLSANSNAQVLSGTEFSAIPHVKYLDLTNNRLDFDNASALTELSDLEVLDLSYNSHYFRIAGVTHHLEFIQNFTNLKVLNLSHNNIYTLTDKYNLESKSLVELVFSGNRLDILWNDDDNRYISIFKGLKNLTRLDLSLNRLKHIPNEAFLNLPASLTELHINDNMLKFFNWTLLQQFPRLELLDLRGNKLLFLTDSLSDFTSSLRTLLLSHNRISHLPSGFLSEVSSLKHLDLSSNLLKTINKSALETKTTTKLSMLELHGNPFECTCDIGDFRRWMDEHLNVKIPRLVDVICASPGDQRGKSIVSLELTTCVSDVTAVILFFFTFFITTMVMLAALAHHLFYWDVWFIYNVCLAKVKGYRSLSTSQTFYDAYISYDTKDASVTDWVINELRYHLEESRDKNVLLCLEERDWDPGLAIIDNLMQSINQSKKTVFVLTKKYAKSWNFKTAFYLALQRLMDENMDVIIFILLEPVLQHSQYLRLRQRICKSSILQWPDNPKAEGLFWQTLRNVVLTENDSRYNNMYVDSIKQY
# TLR7 = target: T2, TLR7 (Homo sapiens, UniProt Q9NYK1); details: cited from earlier work
# T2 construct: expressed in transfected cells; host or cells: HEK293
# T2 sequence (Q9NYK1 27-1049): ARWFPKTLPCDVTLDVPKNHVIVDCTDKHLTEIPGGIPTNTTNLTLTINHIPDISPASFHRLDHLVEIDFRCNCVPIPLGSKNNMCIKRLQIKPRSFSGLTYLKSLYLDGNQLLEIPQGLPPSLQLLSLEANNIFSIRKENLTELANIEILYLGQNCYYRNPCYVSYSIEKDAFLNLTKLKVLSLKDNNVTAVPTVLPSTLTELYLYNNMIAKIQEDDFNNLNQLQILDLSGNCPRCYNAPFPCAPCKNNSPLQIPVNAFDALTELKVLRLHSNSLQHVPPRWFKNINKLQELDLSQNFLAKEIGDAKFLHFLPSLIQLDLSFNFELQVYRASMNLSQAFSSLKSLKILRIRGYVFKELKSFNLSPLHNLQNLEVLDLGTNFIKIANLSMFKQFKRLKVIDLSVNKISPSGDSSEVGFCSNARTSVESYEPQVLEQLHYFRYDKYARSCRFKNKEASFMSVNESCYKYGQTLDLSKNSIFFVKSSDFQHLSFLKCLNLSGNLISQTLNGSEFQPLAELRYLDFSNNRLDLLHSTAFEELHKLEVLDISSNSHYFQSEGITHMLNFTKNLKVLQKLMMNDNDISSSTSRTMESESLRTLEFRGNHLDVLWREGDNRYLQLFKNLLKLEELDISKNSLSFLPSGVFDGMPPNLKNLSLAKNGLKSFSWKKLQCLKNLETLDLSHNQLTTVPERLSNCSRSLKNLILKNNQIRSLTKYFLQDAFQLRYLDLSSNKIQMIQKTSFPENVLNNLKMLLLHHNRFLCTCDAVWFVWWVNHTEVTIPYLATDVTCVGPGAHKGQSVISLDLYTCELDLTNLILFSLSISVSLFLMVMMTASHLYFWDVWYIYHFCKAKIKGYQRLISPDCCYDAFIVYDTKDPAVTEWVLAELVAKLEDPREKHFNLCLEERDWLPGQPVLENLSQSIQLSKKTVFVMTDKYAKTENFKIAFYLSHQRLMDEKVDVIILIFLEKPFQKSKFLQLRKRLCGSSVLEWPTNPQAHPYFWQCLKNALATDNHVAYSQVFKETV
smiles,measurement,setting,value
CCOCc1nc2c(N)nc3ccccc3c2[nH]1 [CL097],concentration inducing NF-κB activation,TLR8,4 μM and 1 μg/ml
same,concentration inducing NF-κB activation,TLR7,0.4 μM and 0.1 μg/ml
